The values that follow come from patent publication US10155802B2, “Locally-active anticoagulants and anti-inflammatory agents” (priority 2011, dated 2018).

Series [1] is described as follows: Thermal unfolding of hairpin linkers (Tm, unfolded population punfold). In kind it is physicochemical. The following applies: calculated, two-state unfolding. From the text: Assuming a two-state unfolding of the trpzip linkers, the unfolded populations punfold=popen (Table 3) can be calculated using reported thermal characteristics of isolated trpzip peptides (Cochran 2001). It is important (Cochran 2001) to take into consideration bulk temperature dependences of the enthalpy and entropy differences between folded and unfolded states of trpzip peptides (Privalov 1997). Disregard for the appreciable ΔCp difference between folded and unfolded species would lead to particularly large underestimation of punfold for BTI5, since the bulk temperatures used for Ki determination were far from the trpzip4 folding transition point.
The punfold value for the BTI2 inhibitor was calculated using ΔH=11.6 kcal/mol and ΔS=39 cal/mol/K obtained in earlier studies of the gb1 peptide (Munoz 1997), which gives punfold values of 0.44 and 0.69 at 21° C. and 37° C., respectively. […] (Table 3). More importantly, all the KD values are close to those of BTI1 which contains a flexible (or random-coil) (GS)8 linker, which confirms the predicted small variation in KD values for bivalent ligands connected by flexible linkers of equal contour length and similar composition (Zhou 2001a; Zhou, 2001b).

In series [2] the target is T1, Human α-thrombin (Homo sapiens, UniProt P00734).
T1 construct: Human α-thrombin was purchased from Haemotologic Technologies, Inc., VT, USA; purchased Haemotologic Technologies, Inc., VT, USA
Kind of series: Inhibition of thrombin-catalyzed hydrolysis of chromogenic substrate S-2366 (inhibition constant Ki). Format: biochemical. The following applies: KD (dissociation constant of open species = Ki x popen), T = 37° C.

A word on the Kd: it is the constant that tells how readily two partners part at equilibrium. Higher therefore signals a looser complex. Take `CC[C@H](C)[C@H](NC(=O)[C@H](CCC(=O)O)NC(=O)[C@H](CCC(=O)O)NC(=O)[C@H](Cc1ccccc1)NC(=O)[C@H](CC(=O)O)NC(=O)CNC(=O)[C@H](CCC(=O)O)NC(=O)[C@@H](NC(=O)[C@@H](NC(=O)[C@@H](NC(=O)[C@H](Cc1ccccc1)NC(=O)[C@@H](NC(=O)[C@H](CCCCN)NC(=O)[C@@H](NC(=O)[C@H](C)NC(=O)[C@H](CC(=O)O)NC(=O)[C@H](CC(=O)O)NC(=O)[C@H](Cc1ccc(O)cc1)NC(=O)[C@@H](NC(=O)[C@H](Cc1c[nH]c2ccccc12)NC(=O)[C@H](CCC(=O)O)NC(=O)CNC(=O)[C@H]1CCCCN1C(=O)[C@H](CCCNC(=N)N)NS(=O)(=O)c1ccc(C(C)(C)C)cc1)[C@@H](C)O)[C@@H](C)O)[C@@H](C)O)[C@@H](C)O)C(C)C)[C@@H](C)O)C(=O)N1CCC[C@H]1C(=O)N[C@@H](CCC(=O)O)C(=O)N[C@@H](CCC(=O)O)C(=O)N[C@@H](Cc1ccc(O)cc1)C(=O)N[C@@H](CC(C)C)C(=O)N[C@@H](CCC(N)=O)C(=O)O` [BTI2]: the “punfold (population of unfolded/open linker)” value in series [1] (T = 21° C.) was 0.44; in series [1] (T = 37° C.), 0.69. This compound also showed a Kd in series [2] of 2.8 ± 0.1 nM.

Consider `CC[C@H](C)[C@H](NC(=O)[C@H](CCC(=O)O)NC(=O)[C@H](CCC(=O)O)NC(=O)[C@H](Cc1ccccc1)NC(=O)[C@H](CC(=O)O)NC(=O)CNC(=O)[C@H](CCC(=O)O)NC(=O)[C@@H](NC(=O)[C@@H](NC(=O)[C@@H](NC(=O)[C@H](Cc1c[nH]c2ccccc12)NC(=O)[C@@H](NC(=O)[C@H](CCCCN)NC(=O)[C@@H](NC(=O)[C@H](C)NC(=O)[C@H](CC(=O)O)NC(=O)[C@H](CC(=O)O)NC(=O)[C@H](Cc1c[nH]c2ccccc12)NC(=O)[C@@H](NC(=O)[C@H](Cc1c[nH]c2ccccc12)NC(=O)[C@H](CCC(=O)O)NC(=O)CNC(=O)[C@H]1CCCCN1C(=O)[C@H](CCCNC(=N)N)NS(=O)(=O)c1ccc(C(C)(C)C)cc1)[C@@H](C)O)[C@@H](C)O)[C@@H](C)O)[C@@H](C)O)C(C)C)[C@@H](C)O)C(=O)N1CCC[C@H]1C(=O)N[C@@H](CCC(=O)O)C(=O)N[C@@H](CCC(=O)O)C(=O)N[C@@H](Cc1ccc(O)cc1)C(=O)N[C@@H](CC(C)C)C(=O)N[C@@H](CCC(N)=O)C(=O)O` [BTI3], for which the “punfold (population of unfolded/open linker)” value is given as 0.29 ± 0.09 in series [1] (T = 21° C.) and 0.41 ± 0.09 in series [1] (T = 37° C.).

With `CC[C@H](C)[C@H](NC(=O)[C@H](CCC(=O)O)NC(=O)[C@H](CCC(=O)O)NC(=O)[C@H](Cc1ccccc1)NC(=O)[C@H](CC(=O)O)NC(=O)CNC(=O)[C@H](CCC(=O)O)NC(=O)[C@@H](NC(=O)[C@H](Cc1c[nH]c2ccccc12)NC(=O)[C@@H](NC(=O)[C@H](Cc1ccccc1)NC(=O)[C@@H](NC(=O)[C@H](CCCCN)NC(=O)[C@@H](NC(=O)[C@H](C)NC(=O)[C@H](CC(=O)O)NC(=O)[C@H](CC(=O)O)NC(=O)[C@H](Cc1ccc(O)cc1)NC(=O)[C@@H](NC(=O)[C@H](Cc1c[nH]c2ccccc12)NC(=O)[C@H](CCC(=O)O)NC(=O)CNC(=O)[C@H]1CCCCN1C(=O)[C@H](CCCNC(=N)N)NS(=O)(=O)c1ccc(C(C)(C)C)cc1)[C@@H](C)O)[C@@H](C)O)[C@@H](C)O)[C@@H](C)O)[C@@H](C)O)C(=O)N1CCC[C@H]1C(=O)N[C@@H](CCC(=O)O)C(=O)N[C@@H](CCC(=O)O)C(=O)N[C@@H](Cc1ccc(O)cc1)C(=O)N[C@@H](CC(C)C)C(=O)N[C@@H](CCC(N)=O)C(=O)O` [BTI4], the “punfold (population of unfolded/open linker)” value in series [1] (T = 21° C.) is listed as 0.24 ± 0.04; in series [1] (T = 37° C.), 0.41 ± 0.05. The compound also displayed a dissociation constant (Kd) in series [2] of 2.8 ± 0.4 nM.

As to `CC[C@H](C)[C@H](NC(=O)[C@H](CCC(=O)O)NC(=O)[C@H](CCC(=O)O)NC(=O)[C@H](Cc1ccccc1)NC(=O)[C@H](CC(=O)O)NC(=O)CNC(=O)[C@H](CCC(=O)O)NC(=O)[C@@H](NC(=O)[C@H](Cc1c[nH]c2ccccc12)NC(=O)[C@@H](NC(=O)[C@H](Cc1c[nH]c2ccccc12)NC(=O)[C@@H](NC(=O)[C@H](CCCCN)NC(=O)[C@@H](NC(=O)[C@H](C)NC(=O)[C@H](CC(=O)O)NC(=O)[C@H](CC(=O)O)NC(=O)[C@H](Cc1c[nH]c2ccccc12)NC(=O)[C@@H](NC(=O)[C@H](Cc1c[nH]c2ccccc12)NC(=O)[C@H](CCC(=O)O)NC(=O)CNC(=O)[C@H]1CCCCN1C(=O)[C@H](CCCNC(=N)N)NS(=O)(=O)c1ccc(C(C)(C)C)cc1)[C@@H](C)O)[C@@H](C)O)[C@@H](C)O)[C@@H](C)O)[C@@H](C)O)C(=O)N1CCC[C@H]1C(=O)N[C@@H](CCC(=O)O)C(=O)N[C@@H](CCC(=O)O)C(=O)N[C@@H](Cc1ccc(O)cc1)C(=O)N[C@@H](CC(C)C)C(=O)N[C@@H](CCC(N)=O)C(=O)O` [BTI5], the “punfold (population of unfolded/open linker)” value is reported as 0.050 ± 0.004 in series [1] (T = 21° C.) and 0.082 ± 0.006 in series [1] (T = 37° C.).
